Key:
human NR1/NR2A = human NR1/NR2A (Homo sapiens (Human), UniProt Q05586+Q12879); assay: NR2A activity (Fluo-4 calcium influx assay); assay type: cell-based
human NR1/NR2B = human NR1/NR2B (Homo sapiens (Human), UniProt Q05586+Q13224); assay: NR2B antagonist activity (Fluo-4 calcium influx assay); assay type: cell-based

Sequences of proteins named here, by UniProt entry; tags and fusion partners are left off. Residues count along the entry.
UniProt Q12879, 23-1464: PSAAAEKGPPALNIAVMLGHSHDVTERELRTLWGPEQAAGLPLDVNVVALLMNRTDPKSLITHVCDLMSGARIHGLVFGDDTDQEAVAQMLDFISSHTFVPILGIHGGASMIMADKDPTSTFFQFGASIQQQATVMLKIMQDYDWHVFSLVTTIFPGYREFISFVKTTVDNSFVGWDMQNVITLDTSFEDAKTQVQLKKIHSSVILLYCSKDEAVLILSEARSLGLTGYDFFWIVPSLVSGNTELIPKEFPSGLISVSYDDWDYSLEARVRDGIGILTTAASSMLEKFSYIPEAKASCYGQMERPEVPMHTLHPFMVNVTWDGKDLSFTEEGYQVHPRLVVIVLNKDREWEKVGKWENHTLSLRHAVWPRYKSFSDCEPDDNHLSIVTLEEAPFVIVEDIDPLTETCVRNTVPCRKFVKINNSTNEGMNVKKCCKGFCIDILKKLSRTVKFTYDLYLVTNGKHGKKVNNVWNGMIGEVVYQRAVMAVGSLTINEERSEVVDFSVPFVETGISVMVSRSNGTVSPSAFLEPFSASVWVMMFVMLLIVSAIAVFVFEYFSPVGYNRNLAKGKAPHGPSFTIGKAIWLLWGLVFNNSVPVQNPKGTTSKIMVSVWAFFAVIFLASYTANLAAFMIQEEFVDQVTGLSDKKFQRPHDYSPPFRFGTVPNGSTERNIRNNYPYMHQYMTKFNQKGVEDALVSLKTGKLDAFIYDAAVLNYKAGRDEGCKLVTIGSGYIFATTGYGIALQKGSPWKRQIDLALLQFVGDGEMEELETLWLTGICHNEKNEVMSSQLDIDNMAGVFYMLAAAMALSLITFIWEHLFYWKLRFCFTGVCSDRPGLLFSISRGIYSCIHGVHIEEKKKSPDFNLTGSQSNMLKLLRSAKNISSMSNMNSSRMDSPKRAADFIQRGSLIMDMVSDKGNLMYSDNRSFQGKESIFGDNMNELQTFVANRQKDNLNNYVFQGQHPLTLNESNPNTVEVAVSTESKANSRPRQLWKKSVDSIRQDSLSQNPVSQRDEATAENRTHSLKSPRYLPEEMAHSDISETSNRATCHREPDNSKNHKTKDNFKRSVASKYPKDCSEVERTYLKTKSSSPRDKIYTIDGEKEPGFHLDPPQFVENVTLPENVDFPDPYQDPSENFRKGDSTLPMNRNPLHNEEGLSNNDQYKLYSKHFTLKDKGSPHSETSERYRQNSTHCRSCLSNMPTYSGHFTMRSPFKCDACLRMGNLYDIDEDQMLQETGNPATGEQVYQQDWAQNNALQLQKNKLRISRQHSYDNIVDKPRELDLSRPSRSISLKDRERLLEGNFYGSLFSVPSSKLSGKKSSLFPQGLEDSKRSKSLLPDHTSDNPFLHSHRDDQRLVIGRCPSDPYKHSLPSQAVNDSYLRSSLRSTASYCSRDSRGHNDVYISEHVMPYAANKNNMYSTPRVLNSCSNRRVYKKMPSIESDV
UniProt Q13224, 27-1484: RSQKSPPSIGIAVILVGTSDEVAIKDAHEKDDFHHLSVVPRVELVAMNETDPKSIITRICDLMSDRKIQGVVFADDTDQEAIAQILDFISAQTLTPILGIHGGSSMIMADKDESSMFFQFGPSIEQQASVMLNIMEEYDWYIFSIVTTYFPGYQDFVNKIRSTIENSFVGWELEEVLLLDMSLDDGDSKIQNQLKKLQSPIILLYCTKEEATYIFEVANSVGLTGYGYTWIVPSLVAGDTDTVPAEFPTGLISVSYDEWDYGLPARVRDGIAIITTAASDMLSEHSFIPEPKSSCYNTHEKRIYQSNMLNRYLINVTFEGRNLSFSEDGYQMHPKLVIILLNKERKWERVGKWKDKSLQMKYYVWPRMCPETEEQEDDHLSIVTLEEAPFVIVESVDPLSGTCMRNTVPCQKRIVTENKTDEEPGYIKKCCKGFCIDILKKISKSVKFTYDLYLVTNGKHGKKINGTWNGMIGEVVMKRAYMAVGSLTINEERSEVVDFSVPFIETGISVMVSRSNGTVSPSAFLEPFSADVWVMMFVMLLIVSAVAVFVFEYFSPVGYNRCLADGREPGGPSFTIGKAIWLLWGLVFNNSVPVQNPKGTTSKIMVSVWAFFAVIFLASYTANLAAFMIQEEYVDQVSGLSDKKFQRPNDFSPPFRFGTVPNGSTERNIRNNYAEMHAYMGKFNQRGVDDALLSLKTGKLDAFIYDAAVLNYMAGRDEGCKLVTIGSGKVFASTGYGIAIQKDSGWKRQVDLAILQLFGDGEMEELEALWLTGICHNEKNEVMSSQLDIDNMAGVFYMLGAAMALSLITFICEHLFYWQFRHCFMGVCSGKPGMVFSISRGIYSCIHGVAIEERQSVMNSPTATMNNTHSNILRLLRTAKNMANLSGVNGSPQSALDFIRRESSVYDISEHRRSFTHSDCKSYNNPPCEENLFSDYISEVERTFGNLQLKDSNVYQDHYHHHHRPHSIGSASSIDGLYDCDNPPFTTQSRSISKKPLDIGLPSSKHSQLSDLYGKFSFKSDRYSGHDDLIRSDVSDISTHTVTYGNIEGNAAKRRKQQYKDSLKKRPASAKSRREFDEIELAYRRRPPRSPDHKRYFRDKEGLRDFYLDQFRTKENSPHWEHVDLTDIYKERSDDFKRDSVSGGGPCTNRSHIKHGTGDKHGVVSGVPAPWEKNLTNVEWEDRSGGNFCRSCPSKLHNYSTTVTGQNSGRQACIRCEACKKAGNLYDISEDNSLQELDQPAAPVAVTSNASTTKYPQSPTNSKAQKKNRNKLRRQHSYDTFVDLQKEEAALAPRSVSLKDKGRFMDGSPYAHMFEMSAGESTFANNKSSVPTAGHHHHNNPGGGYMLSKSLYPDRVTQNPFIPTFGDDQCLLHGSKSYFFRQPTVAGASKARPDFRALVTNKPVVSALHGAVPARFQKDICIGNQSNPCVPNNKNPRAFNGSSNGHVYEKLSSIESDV

Row | IC50 (human NR1/NR2A) | IC50 (human NR1/NR2B) | SMILES
1 | > 10 µM |  | FC(F)c1ccc(C(F)(F)CN2CCC(Nc3ncnc4[nH]ccc34)CC2)nc1 [Compound C-6, N-(1-(2-(5-(difluoromethyl)pyridin-2-yl)-2,2-difluoroethyl)piperidin-4-yl)-7H-pyrrolo[2,3-d]pyrimidin-4-amine]
2 | > 10 µM |  | FC(F)(F)Oc1ccc(C(F)(F)CN2CCC(Nc3ncnc4[nH]ccc34)CC2)nc1 [Compound C-11, N-(1-(2,2-difluoro-2-(5-(trifluoromethoxy)pyridin-2-yl)ethyl)piperidin-4-yl)-7H-pyrrolo[2,3-d]pyrimidin-4-amine]
3 | > 10 µM | 24 nM | FC(F)Oc1ccc(C(F)(F)CN2CCC(Nc3ncnc4[nH]ccc34)CC2)nc1 [Compound C-12, N-(1-(2-(5-(difluoromethoxy)pyridin-2-yl)-2,2-difluoroethyl)piperidin-4-yl)-7H-pyrrolo[2,3-d]pyrimidin-4-amine]
4 | > 10 µM |  | Fc1cc(C(F)(F)F)cnc1C(F)(F)CN1CCC(Nc2ncnc3[nH]ccc23)CC1 [Compound C-18, N-(1-(2,2-difluoro-2-(3-fluoro-5-(trifluoromethyl)pyridin-2-yl)-ethyl)piperidin-4-yl)-7H-pyrrolo[2,3-d]pyrimidin-4-amine]

Row | SMILES | IC50 (human NR1/NR2A) | IC50 (human NR1/NR2B)
5 | FC(F)(F)c1ccc(C(F)(F)CN2CCC(Nc3ncnc4[nH]ccc34)CC2)nc1 [Compound C-5, N-(1-(2,2-difluoro-2-(5-(trifluoromethyl)pyridin-2-yl)ethyl)piperidin-4-yl)-7H-pyrrolo[2,3-d]pyrimidin-4-amine] | > 10 µM | 

From patent publication US9567341B2, “Pyrrolopyrimidine derivatives as NR2B NMDA receptor antagonists” (Rugen Holdings (Cayman) Limited, priority 2014, dated 2017)
